Yeast mating assay 1: variants of the scFv Ab-14

All variants were tested on one target, the spike HR2 peptide PDVDLGDISGINAS (SARS-CoV-2).

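The starting antibody came from a phage panning campaign against this peptide. In library AAYL50, one, two or three CDR residues were substituted; doubles and triples were drawn at random. AlphaSeq pools MATa yeast showing the antibodies with MATalpha yeast showing the peptide. Pairs that bind mate more often; barcode pairs of the diploids are counted by sequencing. The ratio of observed to expected reads was calibrated, replicate by replicate, on BCL2-family standards whose Kd was known from biolayer interferometry. There are three technical replicates.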

Parent scFv Ab-14: VH joined to VL by a 15-residue (Gly4Ser)3 linker. Changes lie in the light chain CDRs alone.
VH: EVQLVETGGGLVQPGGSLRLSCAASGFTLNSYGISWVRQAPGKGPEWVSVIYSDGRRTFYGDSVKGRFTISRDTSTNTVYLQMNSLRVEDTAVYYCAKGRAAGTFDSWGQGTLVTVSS
VL: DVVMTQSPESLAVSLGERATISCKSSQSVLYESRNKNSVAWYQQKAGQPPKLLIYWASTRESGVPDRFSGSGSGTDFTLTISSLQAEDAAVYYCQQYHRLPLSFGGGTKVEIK

Substitutions are numbered in sequence along the VL above, starting at 1 (not Kabat). This list gathers variants with a substitution at S33 (VL, numbered from residue 1). Each Kd is an estimate from the mating assay, the geometric mean of the replicates in which the pair was seen; lower is stronger. "nd" marks a missing value. The strain was present, yet no cells mated with the target were sequenced in any replicate, which points to weak or no binding. Order: sorted from the lowest average up, undetected variants last. Nonspecific signal, from three strains lacking the peptide, appeared in 18% of pairings of library AAYL50, centred on 15 µM (5% of these signals below 970 nM); values are not corrected for it.

* S26L/L30P/S33N -> 4.9 nM (3 of 3 replicates)
* Y31Q/S33A -> 6.0 nM (3 of 3 replicates)
* S28E/S33R/W56H -> 6.7 nM (3 of 3 replicates)
* S33Y/W56K -> 9.1 nM (3 of 3 replicates)
* S33W/H98D -> 15 nM (3 of 3 replicates)
* S33D/N35F/L100Y -> 21 nM (3 of 3 replicates)
* S25C/S33G/A57L -> 42 nM (3 of 3 replicates)
* S33W/R99C/S103H -> 120 nM (3 of 3 replicates)
* S33A/W56Y -> 140 nM (3 of 3 replicates)
* S26F/S33Q/K36I -> 180 nM (3 of 3 replicates)
* S33T/K36M/P101F -> 230 nM (3 of 3 replicates)
* S33F/R34V/S58F -> 300 nM (1 of 3 replicates)
* S33E/P101S -> 1.1 µM (2 of 3 replicates)
* V29F/S33W/A40Q -> 1.1 µM (1 of 3 replicates)
* S33N -> 1.3 µM (2 of 3 replicates)
* S33C/R34M/S62M -> 1.6 µM (3 of 3 replicates)
* S33M/N35M/A57I -> 2.2 µM (1 of 3 replicates)
* S33I/R60N/E61T -> 2.5 µM (1 of 3 replicates)
* S33C/T59G/R60D -> 2.9 µM (2 of 3 replicates)
* S25E/S33V/R99Q -> 6.0 µM (3 of 3 replicates)
* S33M/Q96H -> 14 µM (2 of 3 replicates)
* S28G/S33Q/S103N -> 15 µM (3 of 3 replicates)
* S33A/N35A/S58C -> 36 µM (3 of 3 replicates)
* S33W/Q95E/L100R -> 38 µM (3 of 3 replicates)
* S33I/S58A/T59V -> 63 µM (2 of 3 replicates)
* S33D/S58K/Q95H -> 74 µM (1 of 3 replicates)
* K24H/S33C/V39S -> 85 µM (3 of 3 replicates)
* S33M/V39N/R60T -> nd (0 of 3 replicates)
* S33Q/N37F/L102Q -> nd (0 of 3 replicates)
* S26M/S33C/S103T -> nd (0 of 3 replicates)
* S33M/S62G/S103G -> nd (0 of 3 replicates)
* S33D/A57W -> nd (0 of 3 replicates)
* S33V/R60T -> nd (0 of 3 replicates)
* S28D/Y31K/S33H -> nd (0 of 3 replicates)

For reference, the parent read 4.4 nM as the reference entry and 48 nM as a member of this library.

The measurements come from Engelhart et al. 2022 (doi:10.1038/s41597-022-01779-4) through the FLAb antibody collection.